Reference: ChEMBL document CHEMBL1143066, “Characterization and optimization of selective, nonpeptidic inhibitors of cathepsin S with an unprecedented binding mode” (J Med Chem, 2007)

Protein sequences, listed by entry. Tags and fused reporters are not part of them.
UniProt P25774, whole entry: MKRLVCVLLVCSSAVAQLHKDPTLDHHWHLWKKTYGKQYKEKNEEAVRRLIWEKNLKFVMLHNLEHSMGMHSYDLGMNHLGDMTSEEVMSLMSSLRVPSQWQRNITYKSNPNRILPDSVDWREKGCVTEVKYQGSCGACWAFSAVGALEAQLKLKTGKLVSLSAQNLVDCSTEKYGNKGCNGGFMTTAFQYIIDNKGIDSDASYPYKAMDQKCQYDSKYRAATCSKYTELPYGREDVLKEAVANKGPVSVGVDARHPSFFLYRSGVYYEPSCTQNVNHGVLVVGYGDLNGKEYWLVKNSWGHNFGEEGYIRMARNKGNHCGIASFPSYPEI

Target: Cathepsin S (Homo sapiens, UniProt P25774)
Experiment: Inhibition of cathepsin S
Procedure, shortened: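 Cathepsin S 0.7 nM with inhibitor (added in DMSO), 5 min at 37 °C in pH 6.1 phosphate buffer containing NaCl, DTT, EDTA and Tween-20. Substrate Cbz-Leu-Arg-AMC 2.5 µM, read 5 min (ex 355/em 450 nm). Five concentrations covering 10–90% inhibition, in duplicate. IC50 from V_i/V_o plot, converted to K_i via IC50 − E_t/2.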

SMILES: O=CCOc1ccccc1-c1ccc(F)c(F)c1F
- Ki: 490 nM
